We go through one compound from ChEMBL document CHEMBL1140306, “Cholinesterase inhibitors: xanthostigmine derivatives blocking the acetylcholinesterase-induced beta-amyloid aggregation” (J Med Chem, 2005).

Protein sequences, listed by entry. Tags and fused reporters are not part of them. Lines headed by an entry give the natural chain unless they say otherwise; changes in a name come on top.
UniProt P22303: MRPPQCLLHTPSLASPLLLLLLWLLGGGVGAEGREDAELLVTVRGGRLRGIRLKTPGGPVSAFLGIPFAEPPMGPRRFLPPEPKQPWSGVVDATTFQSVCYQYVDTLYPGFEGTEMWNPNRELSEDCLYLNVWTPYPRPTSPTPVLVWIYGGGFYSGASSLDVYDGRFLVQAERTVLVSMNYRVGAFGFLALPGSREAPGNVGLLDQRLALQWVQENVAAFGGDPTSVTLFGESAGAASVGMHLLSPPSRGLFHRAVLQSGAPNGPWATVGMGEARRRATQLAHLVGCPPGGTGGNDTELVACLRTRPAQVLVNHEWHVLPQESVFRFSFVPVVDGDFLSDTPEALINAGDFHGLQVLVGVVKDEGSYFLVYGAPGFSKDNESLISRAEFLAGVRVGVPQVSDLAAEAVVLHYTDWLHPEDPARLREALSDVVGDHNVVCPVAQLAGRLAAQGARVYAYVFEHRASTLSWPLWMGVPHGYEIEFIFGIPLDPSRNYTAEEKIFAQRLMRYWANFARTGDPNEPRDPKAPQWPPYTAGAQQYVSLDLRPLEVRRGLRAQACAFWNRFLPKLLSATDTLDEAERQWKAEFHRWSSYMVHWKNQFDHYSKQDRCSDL

Usually IC50 stands for the concentration needed to halve the response being measured.

The assay addresses Acetylcholinesterase (Homo sapiens, UniProt P22303). Briefly: Inhibition of recombinant human AChE.

Regarding `CNC(=O)Oc1cccc(CN(C)CCCCCCCOc2ccc3c(c2)OCC3=O)c1`, the IC50 worked out at 1610 nM.
